We go through two compounds from US10023543B2 (CELGENE QUANTICEL RESEARCH, INC., priority 2014, dated 2018).

pIC50: −log10 of the molar value.

One may read the pIC50 as −log10 of the IC50, conventionally taken in molar units. A higher pIC50 goes with a low IC50. In general, IC50 refers to the concentration at which inhibition is half-maximal.

In one experiment the test system is Kasumi-1. Description: Kasumi-1 AML cell line proliferation assay (Cell-MTS assay). In kind it is cell-based. The conditions noted are these: Homo sapiens, 168 hours. From the text: Colorimetric cellular assay to assess the ability of LSD-1 small molecule inhibitors to effect the proliferation of the established AML cancer cell line Kasumi-1.
This Cell-MTS assay is a 7-day plate based colorimetric assay which quantifies the amount of newly generated NADH in the presence and absence of test compound. These NADH levels are used as a proxy for the quantification of cancer cell proliferation.
The established cancer cell line Kasumi-1 with a verified p53 mutation were purchased from American Type Culture Collection (ATCC) and routinely passaged according to ATCC published protocols. For routine assay these cells were seeded at a density of 20,000 cells per 96-well. 24 hours after plating, cells received an 11 point dilution of test compound with final concentration ranges from 100 μM to 2.0 nM. Cells are incubated in the presence of compound for 168 hours at 37° C., 5% CO2. At the end of this compound incubation period, 80 μl of media is removed and 20 μL of CellTiter 96® AQueous Non-Radioactive Cell Proliferation Assay solution (Promega) is added. The cells are incubated until the OD490 is >0.6. IC50 values are calculated using the IDBS XLfit software package and include background subtracted OD490 values and normalization to DMSO controls.
(In general: Tetrazolium dyes change colour on reduction, which living cells bring about.)

The test system of another experiment is THP-1 (AML) cells. The experiment can be described thus: LSD1 CD11b cellular assay (flow cytometry). The experiment is classed as cell-based. The conditions noted are these: Homo sapiens, THP-1, 96 h, read-out: THP-1 IC50 (μM). In general terms: Flow cytometry measures light scatter and fluorescence of single cells or particles in a stream.

As for `COc1ccc(-c2c(-c3ccc(C#N)c(F)c3)nc(N3CCC(N)CC3)n(C)c2=O)cc1F` [Example 7, 4-[2-(4-amino-piperidin-1-yl)-5-(3-fluoro-4-methoxy-phenyl)-1-methyl-6-oxo-1,6-dihydro-pyrimidin-4-yl]-2-fluoro-benzonitrile], the pIC50 in the experiment with Kasumi-1 is > 7.00. In the case of `COc1ccc(-c2c(-c3ccc(C#N)c(F)c3)nc(N(C)C3CCNCC3)n(C)c2=O)cc1` [Example 55, 2-fluoro-4-[5-(4-methoxy-phenyl)-1-methyl-2-(methyl-piperidin-4-yl-amino)-6-oxo-1,6-dihydro-pyrimidin-4-yl]-benzonitrile], in the experiment with THP-1 (AML) cells, the IC50 was 0.1 to 1 µM.
